Results on two molecules are retold here after ChEMBL document CHEMBL1140221, “Novel naphthalene-N-sulfonyl-D-glutamic acid derivatives as inhibitors of MurD, a key peptidoglycan biosynthesis enzyme” (J Med Chem, 2008).

This assay can be described thus: Inhibition of Escherichia coli MurD.

One may read the IC50 as the concentration that gives 50% inhibition. In the case of `N#Cc1ccc(COc2ccc3cc(S(=O)(=O)N[C@H](CCC(=O)O)C(=O)O)ccc3c2)cc1`, the IC50 is 105 µM.

Turning to `N#Cc1ccc(COc2ccc3ccc(S(=O)(=O)N[C@H](CCC(=O)O)C(=O)O)cc3c2)cc1`, the IC50 was 122 µM.
